{"sequences": {"note": "Protein sequences, listed by entry. Tags and fused reporters are not part of them.", "UniProt P07550, whole entry": "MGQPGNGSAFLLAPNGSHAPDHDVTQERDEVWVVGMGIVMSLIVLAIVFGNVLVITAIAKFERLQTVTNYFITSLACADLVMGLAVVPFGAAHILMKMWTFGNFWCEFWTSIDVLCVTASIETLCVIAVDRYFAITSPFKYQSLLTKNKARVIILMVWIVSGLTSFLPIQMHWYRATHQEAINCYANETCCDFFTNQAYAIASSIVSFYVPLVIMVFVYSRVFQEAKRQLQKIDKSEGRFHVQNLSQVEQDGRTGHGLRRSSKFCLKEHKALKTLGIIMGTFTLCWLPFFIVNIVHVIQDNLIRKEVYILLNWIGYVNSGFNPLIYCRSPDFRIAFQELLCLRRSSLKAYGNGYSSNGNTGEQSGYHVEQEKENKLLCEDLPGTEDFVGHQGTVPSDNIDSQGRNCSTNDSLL"}, "source": "PubChem BioAssay AID504454", "about": "(NMMLSC, 2011)", "note": "The list shows a part of the results, in another mix than the full data. Calls of active or inactive are those of the source.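 How the source made its calls: active means response above a set limit, near 3 SD of response in nonfluorescent compounds (cut at about 42% in these data); inactive means the rest.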", "data": [{"target": "Beta-2 adrenergic receptor (Homo sapiens) (UniProt P07550)", "assay": "agonist-induced loss of surface beta2AR – cell-based, FAP fluorogen, flow cytometry, primary screen (AID 504454)", "conditions": "Am2.2-beta2AR cells, FAP receptor internalization, stronger effect = higher value, concentration not given here", "values": [{"compound": "CCC(=O)N(c1ccccc1)C1(COC)CCN(CCc2cccs2)CC1", "response": "inactive: 0.65%"}, {"compound": "CCC(=O)N(c1ccccc1)C1(COC)CCN(CCn2nnn(CC)c2=O)CC1", "response": "inactive: 1.49%"}]}]}
